Laboratory results: ChEMBL document CHEMBL1132276, “Development of predictive retention-activity relationship models of tricyclic antidepressants by micellar liquid chromatography” (J Med Chem, 1999)

Protein sequences, listed by entry. Tags and fused reporters are not part of them.
UniProt P31390, whole entry: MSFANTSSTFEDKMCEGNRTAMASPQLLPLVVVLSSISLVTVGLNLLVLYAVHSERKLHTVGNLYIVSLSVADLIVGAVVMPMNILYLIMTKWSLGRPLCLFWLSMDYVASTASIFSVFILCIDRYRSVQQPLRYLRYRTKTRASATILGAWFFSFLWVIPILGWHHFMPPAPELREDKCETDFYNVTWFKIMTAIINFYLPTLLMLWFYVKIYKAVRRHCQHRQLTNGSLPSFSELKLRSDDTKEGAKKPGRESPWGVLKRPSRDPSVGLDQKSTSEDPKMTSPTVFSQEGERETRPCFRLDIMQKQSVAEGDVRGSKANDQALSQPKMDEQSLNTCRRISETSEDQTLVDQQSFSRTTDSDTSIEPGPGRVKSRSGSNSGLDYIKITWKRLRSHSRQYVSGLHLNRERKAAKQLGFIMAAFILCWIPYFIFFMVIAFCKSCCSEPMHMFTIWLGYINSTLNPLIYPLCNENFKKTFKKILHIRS

Target: Histamine H1 receptor (Rattus norvegicus, UniProt P31390)
Assay: Compound tested for its inhibitory activity against Histamine H1 receptor

CN(C)CCCN1c2ccccc2CCc2ccc(Cl)cc21 [CLOMIPRAMINE]
IC50: 0.2 µM

CN1CCN2c3ccccc3Cc3ccccc3C2C1 (configuration not stated) [MIANSERIN]
IC50: 0.006 µM
